AlphaSeq binding of Ab-91 heavy chain variants to a spike HR2 peptide

Antigen: PDVDLGDISGINAS, a 14-residue peptide of the SARS-CoV-2 spike HR2 region.

Parent scFv Ab-91: VL joined to VH by three GGGGS repeats. Changes lie in the heavy chain CDRs alone.
VL: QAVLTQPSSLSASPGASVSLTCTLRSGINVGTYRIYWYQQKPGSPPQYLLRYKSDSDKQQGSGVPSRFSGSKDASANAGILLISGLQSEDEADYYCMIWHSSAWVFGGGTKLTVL
VH: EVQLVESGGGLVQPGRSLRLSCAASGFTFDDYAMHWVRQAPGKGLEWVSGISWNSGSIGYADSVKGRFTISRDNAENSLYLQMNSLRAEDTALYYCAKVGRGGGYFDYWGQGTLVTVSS

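The starting antibody came from a phage panning campaign against this peptide. AAYL51 was designed without a model: most single CDR substitutions and a random sample of double and triple ones. In AlphaSeq, yeast of one mating type display the scFv and yeast of the other type display the target. The frequency of each diploid, read from paired DNA barcodes, reflects how well the two displayed proteins bind. Scores were corrected for input abundance and mapped to Kd with protein pairs of known affinity run in the same pool. The assay was run in three technical replicates.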

Positions count from residue 1 of the parent VH; D31V puts V in place of D. Values are log10 of the apparent Kd in nM; lower means stronger binding. A pair that was not seen in that replicate is written "n.d."; this usually means weak binding, but a binder can also be missed.

changes,"log10 Kd, replicates",signal with controls
D31V/D107H/Y108A,n.d. n.d. n.d.,0 of 9
K65A/G104Q,n.d. n.d. n.d.,0 of 9
M34D/V99C/D107R,n.d. n.d. n.d.,0 of 9
D30I/G50I/R101M,n.d. n.d. n.d.,0 of 9
F27C/A33Q/G103Y,5.20 n.d. 4.89,4 of 9 (5.10)
G56E/S57F/I58Q,1.42 1.87 0.87,0 of 9
H35W/S52T/K65G,n.d. 5.28 n.d.,2 of 9 (4.04)
H35W/S57G/G59K,n.d. n.d. n.d.,0 of 9
F27R/F29M/K65N,3.40 3.60 4.28,1 of 9 (4.72)
G26I/G59L/G100V,4.27 4.85 n.d.,2 of 9 (4.63)
G26F/N54H/D107R,3.77 n.d. n.d.,1 of 9 (3.90)
A33I/W53F/G56Y,4.74 n.d. n.d.,4 of 9 (4.84)
G26W/Y32N,n.d. n.d. n.d.,1 of 9 (4.04)
S52Y/K65Q/R101A,3.80 4.58 4.82,2 of 9 (4.17)
Y32D/G104F/Y108Q,n.d. n.d. 3.00,0 of 9
F29D/G50N/W53R,4.20 5.16 4.94,3 of 9 (4.79)
G50V/V64W/G103E,n.d. n.d. n.d.,0 of 9
S63D/G104V,n.d. n.d. n.d.,0 of 9
F29D/A33S/D107S,3.39 4.04 4.37,3 of 9 (5.01)
S57R/R101G/Y108N,n.d. 5.58 n.d.,7 of 9 (4.53)
Y60V/A61E/D107W,4.48 4.42 4.16,1 of 9 (3.52)
F29N/G59Y/S63I,n.d. n.d. n.d.,2 of 9 (3.90)
H35E/G100V/Y105S,4.77 4.24 n.d.,6 of 9 (4.19)
D30A/H35S,4.75 n.d. n.d.,2 of 9 (4.87)
T28I/R101A/Y108L,3.89 3.54 4.52,0 of 9
F27W/D62I/V64S,n.d. 4.64 n.d.,4 of 9 (4.30)
T28G/M34E/S55M,n.d. n.d. n.d.,0 of 9
S52R/S55Q/S57K,n.d. 3.80 n.d.,1 of 9 (4.14)
N54E/R101E/Y105V,4.54 n.d. 5.53,4 of 9 (5.01)
T28V/M34W/S63R,4.05 n.d. n.d.,1 of 9 (5.56)
G50A/Y60G/D107E,n.d. n.d. n.d.,0 of 9
M34N/Y60H/G100W,n.d. n.d. n.d.,1 of 9 (4.00)
G50H/G56C/R101A,4.86 4.73 4.85,4 of 9 (4.36)
D31K/A33P/R101W,1.48 1.22 1.08,0 of 9
A33Q/H35G/D107F,4.01 n.d. n.d.,0 of 9
H35P/Y60Q/V64D,4.50 n.d. n.d.,1 of 9 (4.95)
N54S/I58L/G104R,4.30 n.d. n.d.,4 of 9 (4.80)

Excerpt, the first 4 entries:

changes,"log10 Kd, replicates",signal with controls
D31V/D107H/Y108A,n.d. n.d. n.d.,0 of 9
K65A/G104Q,n.d. n.d. n.d.,0 of 9
M34D/V99C/D107R,n.d. n.d. n.d.,0 of 9
D30I/G50I/R101M,n.d. n.d. n.d.,0 of 9

Nonspecific signal, from three strains lacking the peptide, appeared in 21% of pairings of library AAYL51, centred on 4.54 (5% of these signals below 3.26); values are not corrected for it. For each scFv, signals with the empty controls are counted beside the result, with their mean in brackets.

Values reported by Engelhart et al. 2022, doi:10.1038/s41597-022-01779-4 (FLAb copy).